IC50 and Ki data for one molecule are collected here from publication PMC12186753 (ACS pharmacology & translational science, 2025).

Sequences of proteins named here, by UniProt entry; tags and fusion partners are left off. Residues count along the entry.
UniProt P00747, 97-580 limits assumed: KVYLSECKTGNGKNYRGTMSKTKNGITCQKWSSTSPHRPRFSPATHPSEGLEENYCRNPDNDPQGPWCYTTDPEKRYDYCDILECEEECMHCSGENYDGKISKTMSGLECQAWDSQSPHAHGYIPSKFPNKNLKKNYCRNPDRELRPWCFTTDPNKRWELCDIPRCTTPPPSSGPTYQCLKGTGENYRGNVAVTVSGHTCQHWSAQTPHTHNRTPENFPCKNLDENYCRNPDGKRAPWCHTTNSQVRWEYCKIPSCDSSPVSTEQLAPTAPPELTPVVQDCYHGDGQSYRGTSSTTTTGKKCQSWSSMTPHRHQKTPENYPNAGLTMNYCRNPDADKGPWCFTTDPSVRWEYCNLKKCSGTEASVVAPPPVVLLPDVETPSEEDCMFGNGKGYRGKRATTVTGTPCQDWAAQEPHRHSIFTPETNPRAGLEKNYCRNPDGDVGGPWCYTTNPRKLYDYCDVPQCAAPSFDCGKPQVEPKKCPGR
UniProt P00747, 581-810 limits assumed: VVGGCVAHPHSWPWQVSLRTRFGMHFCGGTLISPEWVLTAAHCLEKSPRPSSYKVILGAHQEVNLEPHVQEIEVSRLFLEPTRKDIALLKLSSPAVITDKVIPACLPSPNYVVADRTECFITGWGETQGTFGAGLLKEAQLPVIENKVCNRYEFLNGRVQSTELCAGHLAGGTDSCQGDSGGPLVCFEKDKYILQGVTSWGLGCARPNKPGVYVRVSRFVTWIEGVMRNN

The target of assay [1] is T1, plasmin (Homo sapiens, UniProt P00747). Description: Annular fibrin clot assay (FITC-tagged fibrin clot lysis by plasmin). Type of assay: biochemical.
For assay [2], the target named is T1, plasmin. The note with it: read-out: Plasmin Ki; S-2251, 42.5 nM human plasmin, Dixon plot; previously determined; cited from earlier work.

`N=C(N)c1ccccc1` [Benzamidine, reference compound]: the IC50 – broadly, the concentration that gives 50% inhibition – on plasmin [1] stood at 1140 µM. Also, the inhibition constant Ki – broadly, the dissociation constant of the complex between target and ligand, obtained from inhibition or displacement – on plasmin [2] is 32 ± 3 µM.
